Source: US20250066446A1, “FUSION PROTEINS FOR THE TREATMENT OF CARDIOMETABOLIC DISEASES” (Shattuck Labs, Inc., priority 2022, published 2025)

How the values were obtained:
[1] = Longer-term obesity model in HFD-fed mice; details: tail vein dosing Day 0 to Day 18
Description: Mice (Male C57BL/6) were of approximately 13 weeks of age were housed 4 mice per cage. Following 2 weeks of acclimatation, mice were introduced to 60% kcal HFD (Research Diets D12492). Cages were changed once, then changed once a week. Weekly body weights and non-fasted blood glucose were collected.
Mice were injected by tail vein with vehicle or the drugs on Day 0, Day 4, Day 7, Day 10, Day 14, and Day 18. Body weights were measured every 2 days. Change in body weight was calculated and plotted.
Cumulative food intake was measured between day 0 and 3, between day 4 and 7, between day 7 and day 11, and between day 11 and day 14, and represented as average daily food intake. For food consumption, remaining food was weighed on days 3, 8, and 15, and subtracted from the starting weight. This value was then normalized to the number of mice in the cage, and the number of days the mice had access to the food prior to weighing.
Blood glucose levels were measured on Days 0, 1, 10 and 15 and plotted.
On day 19 during terminal necropsy, liver and subcutaneous white adipose tissue were recovered weighed from treated animals.
To further analyze the changes in liver, histopathological analysis was conducted. Briefly, the liver tissue was stained with hematoxylin and eosin (H&E) and evaluated using standard techniques.

[2] = cited from earlier work; for half-life: in the body / blood / plasma

Substance | tolerability, clinical observations [1] | half-life [2] | half-life in circulation ([2]; in vivo)
tirzepatide [reference compound] | moribund, lethargic, scruffy, and consumed significantly less food and water immediately post dose |  | 
Glucose-dependent insulinotropic polypeptide [GlP] |  | 2 to 5 min | 2 to 5 min
insulin |  | 2 to 5 min | 
